Compounds with a hit are over-represented: about 2.8% of the library has one in this group of screens.
UUG fidelity: yeast start codon fidelity modulation; activity score, % at 18.7 µM; actives 0.13% (n = 350,000); S. cerevisiae UUG-firefly luciferase reporter, luminescence/redox ratio; AID 602363;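 active means replicate mean at a twofold rise or more, about +100% in these data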;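 further: firefly luciferase made from a UUG start codon reports start codon fidelity; reporter light over untreated wells divided by growth signal over untreated wells; some hits fall short of that in this replicate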
Wnt bcat act: Wnt/beta-catenin pathway activators, primary screen, cell-based, plate reader, single point; 300,000 tested, 1.2% active; Wnt/beta-catenin reporter cell assay, activator; activation, % at 9.35 µM; in the data active = activation above about 30%, passing the limit was not always enough; inconclusive = no clear call, values can overlap the other calls;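 note: 0% = neutral control wells and 100% = positive control wells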
miR-122 sensor: miR-122 Renilla sensor signal increase in Huh7, primary screen, miR-122 inhibitor project, cell-based, single point, plate reader; Huh7 miR-122 Renilla luciferase sensor, 48 h; neutral wells = 0, positive control = 100; activation (reporter increase), % at 12.5 µM; 340,000 tested, 0.3% active; AID 602342, 2012;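 active = mean replicate activation score at least 90 and every replicate individually at or above 90; inconclusive = only one of the two criteria met; inactive = neither criterion met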;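 note: higher luciferase means less miR-122 activity so hits act as miR-122 inhibitors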
esBAF inh: Bmi1 luciferase reporter increase in mESCs, primary screen, esBAF inhibitor project, mouse ES cells, Bmi1 luciferase knock-in, single point. 24 h; 100% = twice the neutral-well signal. reporter increase, % at 12.5 µM. 350,000 tested, 2% active. AID 602393, 2012; in the data active = activation above about 40%; inconclusive = no clear call, values can overlap the other calls;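 note: 0% = median of the plate's neutral control wells and 100% = double that signal; a rise in the Bmi1 reporter signal indicates esBAF inhibition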
MITF TRPM1 HTS: activators of MITF-driven TRPM1 promoter reporter, primary screen, cell-based, SK-MEL-5, luciferase, single point. activation, % at 12.5 µM. 300,000 tested, 0.75% active. SK-MEL-5 TRPM1-promoter luciferase, 24 h; % of positive control, neutral wells = 0. AID 588334, 2011;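 active = mean activation of at least 80% with every replicate also reaching 80%; inconclusive = mean reaches 80% but some replicate falls short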;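 note: 0% = neutral control wells and 100% = parthenolide positive control wells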
PglD DTNB: C. jejuni PglD acetyltransferase inhibitors, primary screen, biochemical, DTNB colorimetric, single point. AID 602405, 2012. 360,000 tested, 0.098% active. inhibition, % at 12.5 µM. purified PglD enzyme, DTNB colorimetric CoA detection; in the data active = inhibition above about 16%, passing the limit was not always enough; inconclusive = no clear call, values can overlap the other calls
Numbers without * were called inactive; [ ] = dose if it differs, or a comment.

Results for COc1cccc(NC(=O)n2ncc3c(C)cccc32)c1 ?
UUG fidelity: -73.7; Wnt bcat act: 44.6*; esBAF inh: -35.3; MITF TRPM1 HTS: 8.8; PglD DTNB: -1.8

What do the screens show for `COc1ccc(NC(=O)Nc2ccc(F)cc2F)cc1`?
miR-122 sensor: 4.8; esBAF inh: inconclusive; MITF TRPM1 HTS: 92.3*

How did COc1ccc(NC(=S)Nc2ccc3nccnc3c2)cc1 do in these assays?
UUG fidelity: -15.6; miR-122 sensor: -1.4; esBAF inh: 64.7*; MITF TRPM1 HTS: 87.6*; PglD DTNB: -1.8

What do the screens show for `CCCCC(=O)Nc1ccc(Cl)cc1F`?
UUG fidelity: -6.3; Wnt bcat act: 5.8; miR-122 sensor: -8.3; esBAF inh: 14.8; PglD DTNB: 0.5

Results for C[C@@H]1CN([C@H](C)CO)C(=O)c2cc(NS(=O)(=O)c3cn(C)cn3)ccc2O[C@@H](C)CCCCO[C@H]1CN(C)S(=O)(=O)c1cn(C)cn1 ?
UUG fidelity: 0.4; miR-122 sensor: 16.4[16.7 µM]; esBAF inh: 2.4; PglD DTNB: 0.8

How did C[C@H](CO)N1C[C@H](C)[C@@H](CN(C)Cc2ccncc2)Oc2ncc(C#CC3CCCC3)cc2C1=O do in these assays?
UUG fidelity: -9.2; miR-122 sensor: -7.7[16.7 µM]; esBAF inh: -0.1; PglD DTNB: 0.7

What do the screens show for `COC(=O)[C@H](Cc1ccccc1)NC(=O)NCc1ccc(C)cc1`?
UUG fidelity: -2.3; Wnt bcat act: 51.2*; miR-122 sensor: -6.4; esBAF inh: -3.1; PglD DTNB: -1.3

What do the screens show for `COc1ccc(NC(=O)Nc2ccc(Br)cn2)cc1`?
Wnt bcat act: 27.2; MITF TRPM1 HTS: 87.1*

Results for COc1cccc(NC(=S)Nc2ccc(F)cc2)c1 ?
UUG fidelity: -34.3; Wnt bcat act: 40.6*; miR-122 sensor: 5.4; esBAF inh: 6.4; MITF TRPM1 HTS: -1.2; PglD DTNB: 7.7

Results for COC(=O)c1ccccc1NC(=O)Nc1ccc(Br)cn1 ?
UUG fidelity: -4.2; Wnt bcat act: 3.0; MITF TRPM1 HTS: 3.8; PglD DTNB: 0.8

Results for C=CCNC(=O)Nc1ccc2oc(C)nc2c1 ?
UUG fidelity: -17.9; miR-122 sensor: -1.0; esBAF inh: -0.1; MITF TRPM1 HTS: 9.2; PglD DTNB: -3.6

Results for COC(=O)[C@H](Cc1ccccc1)NC(=O)NCc1ccccc1 ?
UUG fidelity: -7.6; Wnt bcat act: -1.5; miR-122 sensor: -5.0; esBAF inh: -6.5; PglD DTNB: 1.7

What do the screens show for `COc1ccc(NC(=O)Nc2ccc3oc(C)nc3c2)cc1`?
Wnt bcat act: 39.8*; MITF TRPM1 HTS: 44.0

Results for O=C(C[C@@H]1CC[C@@H]2[C@H](COC[C@@H](O)CN2C(=O)Nc2ccc(F)cc2)O1)NCCc1ccccc1 ?
UUG fidelity: 7.5; miR-122 sensor: -5.2[16.7 µM]; esBAF inh: 4.5; PglD DTNB: 1.5

How did COc1ccc(NC(=S)NCc2ccc(F)cc2)cc1 do in these assays?
UUG fidelity: -16.3; Wnt bcat act: 3.4; miR-122 sensor: 24.3; esBAF inh: 42.4*; MITF TRPM1 HTS: -6.6; PglD DTNB: 3.4

What do the screens show for `CN(c1ccccc1)S(=O)(=O)c1ccc(NC(=O)c2ccc(-c3ccccc3)cc2)cc1`?
UUG fidelity: -8.5; Wnt bcat act: -1.1; miR-122 sensor: -5.1; esBAF inh: 2.4; MITF TRPM1 HTS: -10.6; PglD DTNB: -6.1

How did COC(=O)c1sccc1NC(=O)Nc1cccc(OC)c1 do in these assays?
UUG fidelity: -2.5; Wnt bcat act: 1.9; miR-122 sensor: 1.3; esBAF inh: 19.9; MITF TRPM1 HTS: 2.9; PglD DTNB: -2.7

Results for Cc1nc2cc(NC(=O)c3ccc(S(=O)(=O)N(C)c4ccccc4)cc3)ccc2o1 ?
UUG fidelity: -8.1; Wnt bcat act: 1.4; miR-122 sensor: -12.5; esBAF inh: 83.4*; MITF TRPM1 HTS: 10.1; PglD DTNB: -6.2

How did COc1cccc(NC(=O)Nc2ccccc2Br)c1 do in these assays?
UUG fidelity: -16.0; Wnt bcat act: 22.9; miR-122 sensor: -0.6; esBAF inh: 59.5*; MITF TRPM1 HTS: 71.7; PglD DTNB: -1.9

What do the screens show for `COc1ccc(NC(=O)N(C)C[C@@H]2OCCCC[C@H](C)Oc3ccc(NC(=O)CCC(F)(F)F)cc3C(=O)N([C@H](C)CO)C[C@H]2C)cc1`?
UUG fidelity: 24.7; miR-122 sensor: -6.9[16.7 µM]; esBAF inh: 4.4; PglD DTNB: 0.6

What do the screens show for `Cc1noc(C)c1S(=O)(=O)N(C)C[C@@H]1OCCCC[C@H](C)Oc2ccc(NC(=O)c3ccccc3)cc2C(=O)N([C@@H](C)CO)C[C@H]1C`?
UUG fidelity: 4.6; miR-122 sensor: 5.6[16.7 µM]; esBAF inh: 4.8; PglD DTNB: -2.3

Results for COc1cc(NC(=O)c2cccs2)ccc1NC(=O)c1ccco1 ?
UUG fidelity: -7.8; Wnt bcat act: 58.5*; miR-122 sensor: -5.2; esBAF inh: 91.9*; MITF TRPM1 HTS: 92.5*

How did O=C(Nc1ccc(NC(=O)c2cccs2)cc1Cl)c1ccco1 do in these assays?
Wnt bcat act: 45.8*; MITF TRPM1 HTS: 60.5

How did COc1cc(NC(=O)c2ccccc2Cl)ccc1NC(=O)c1ccco1 do in these assays?
UUG fidelity: 6.2; Wnt bcat act: 17.0; miR-122 sensor: -3.1; esBAF inh: 51.4*; MITF TRPM1 HTS: 92.5*; PglD DTNB: -1.1

Results for Cc1noc(C)c1S(=O)(=O)Nc1ccc2c(c1)C(=O)N([C@@H](C)CO)C[C@@H](C)[C@@H](CN(C)C(=O)c1ccncc1)OCCCC[C@@H](C)O2 ?
UUG fidelity: 10.5; miR-122 sensor: 8.1[16.7 µM]; esBAF inh: -2.6; PglD DTNB: -0.1

What do the screens show for `CCCNC(=O)OCCC12CC3CC(CC(C3)C1)C2`?
UUG fidelity: -12.8; Wnt bcat act: inconclusive; miR-122 sensor: -3.3; esBAF inh: 55.6*; MITF TRPM1 HTS: 59.2; PglD DTNB: -3.0

What do the screens show for `CCCNC(=O)NCCC12CC3CC(CC(C3)C1)C2`?
Wnt bcat act: 4.0; miR-122 sensor: 2.1; esBAF inh: 17.0; MITF TRPM1 HTS: 26.7

What do the screens show for `CO[C@H]1CN(C)C(=O)c2cc(NC(=O)NC3CCCCC3)ccc2OC[C@@H](C)NC[C@@H]1C`?
UUG fidelity: -5.2; miR-122 sensor: -2.0[16.7 µM]; esBAF inh: -2.2; PglD DTNB: 0.5

How did Cc1ccccc1-c1cnc2c(c1)C(=O)N([C@@H](C)CO)C[C@@H](C)[C@@H](CN(C)C(=O)c1ccncc1)O2 do in these assays?
UUG fidelity: -0.2; miR-122 sensor: -1.0[16.7 µM]; esBAF inh: 1.8; PglD DTNB: 1.5

Bioassay records: PubChem BioAssay, Broad Institute
